In US9977024B2, “Targeted covalent probes and inhibitors of proteins containing redox-sensitive cysteines” (THE SCRIPPS RESEARCH INSTITUTE, priority 2012, dated 2018):

Tests used:
[1] = Microsome stability, mouse liver microsomes
EGFR = EGFR (Homo sapiens, UniProt P00533); experiment: Western blot of pEGFR in A431 cells under H2O2 stress or hypoxia; conditions: for dose dependence of EGFR inhibition: FIG. 15
[2] = Plasma stability in mice (20 mg/kg IP)
[3] = Microsome stability, human liver microsomes

Row | Microsome Stability Mouse Cl [1] | Microsome Stability Mouse t1/2 [1] | dose dependence of EGFR inhibition (EGFR) | Plasma Stability in Mice 1 h [2] | Plasma Stability in Mice 4 h [2] | Plasma Stability in Mice 8 h [2] | Plasma Stability in Mice 24 h [2] | Microsome Stability Human Cl [3] | Microsome Stability Human t1/2 [3] | SMILES | redox dependence of pEGFR inhibition (EGFR; A431 cells, untreated vs H2O2 stress / hypoxia) | affinity for EGFR by Western blot (EGFR; FIG. 15, increasing concentrations)
1 | (42.1) μl/min/mg | 16 min | dose-dependent | 11.6 µM | 2.6 µM | 0.48 µM | <0.022 µM | (24.2) μl/min/mg | 29 min | O=C1CC(=O)CC(C(=O)Nc2ccc3ncnc(Nc4cccc(Br)c4)c3c2)C1 | time-dependent inhibition and redox-modulated inhibition | –
2 | (11.8) μl/min/mg | 59 min | dose-dependent | 14.7 µM | 1.1 µM | 0.18 µM | <0.022 µM | (6.3) μl/min/mg | – | O=C1CC(=O)C(CC(=O)Nc2ccc3ncnc(Nc4cccc(Br)c4)c3c2)C1 (stereo not shown) | – | higher affinity for EGFR compared to Compound 1a
